Data on one compound can be found in patent publication US8889708B2 (Boehringer Ingelheim International GmbH, priority 2013, dated 2014).

The chains behind the UniProt entries cited, without tags or fusion partners. Residues count along the entry.
UniProt P53634, 395-463: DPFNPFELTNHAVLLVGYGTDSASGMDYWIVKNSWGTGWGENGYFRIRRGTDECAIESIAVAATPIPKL
UniProt P53634, 25-134: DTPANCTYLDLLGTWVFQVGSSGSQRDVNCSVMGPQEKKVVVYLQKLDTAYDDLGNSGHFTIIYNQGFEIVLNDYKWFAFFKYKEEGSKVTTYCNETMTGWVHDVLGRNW
UniProt P53634, 231-394: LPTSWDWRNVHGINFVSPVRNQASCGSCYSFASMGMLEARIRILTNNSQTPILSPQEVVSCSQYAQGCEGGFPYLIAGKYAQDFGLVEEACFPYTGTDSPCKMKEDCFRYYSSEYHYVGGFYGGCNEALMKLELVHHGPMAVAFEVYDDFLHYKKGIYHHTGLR

This test has as its target recombinant human DPPI (Homo sapiens (Human), UniProt P53634). As to the kind of experiment: Inhibition of Human DPPI (Cathepsin C). It counts as biochemical. As to conditions: substrate Gly-Arg-AMC, 30 min room temperature. An excerpt: Inhibition of Human DPPI (Cathepsin C)
Materials: Microtiterplates (Optiplate-384 F) were purchased from PerkinElmer (Prod. No. 6007270). The substrate Gly-Arg-AMC was from Biotrend (Prod.-No. 808756 Custom peptide). Bovine serum albumin (BSA; Prod. No. A3059) and Dithiothreitol (DTT; Prod. No D0632) were from Sigma. TagZyme buffer was from Riedel-de-Haen (Prod.-No. 04269), NaCl was from Merck (Prod.-No. 1.06404.1000) and morpholinoethane sulfonic acid (MES), was from Serva (Prod.-No. 29834). The DPP1 inhibitor Gly-Phe-DMK was purchased from MP Biomedicals (Prod.-No. 03DK00625). The recombinant human DPPI was purchased from Prozymex. All other materials were of highest grade commercially available.
The following buffers were used: MES buffer: 25 mM MES, 50 mM NaCl, 5 mM DTT, adjusted to pH 6.0, containing 0.1% BSA; TAGZyme Buffer: 20 mM NaH2PO4, 150 mM NaCl adjusted to pH 6.0 with HCl […]
Five uL test compound (final concentration 0.1 nM to 100 μM) in aqua bidest (containing 4% DMSO, final DMSO concentration 1%) were mixed with 10 μL of DPPI in MES buffer (final concentration 0.0125 ng/μL) and incubated for 10 min. […] The fluorescence in the wells was determined using a Molecular Devices SpectraMax M5 Fluorescence Reader (Ex 360 nm, Em 460 nm) or an Envision Fluorescence Reader (Ex 355 nm, Em 460 nm). […]

`CN1Cc2cc(-c3ccc(C[C@@H](C#N)NC(=O)[C@]45CC[C@@H](CN4)C5)cc3)ccc2C1=O` [Example 17]: the 50% inhibitory concentration (IC50) turned out to be 1.44 µM.

One may read the IC50 as the concentration that gives 50% inhibition.
